{"source": "paper PMC3138877", "about": "(Cancer research, 2011)", "origin": "cited, not measured here", "system": "ALK fusion positive NSCLC", "details": "phase I study, patients with ALK fusion positive NSCLC; cited from earlier work", "data": [{"smiles": "C[C@@H](Oc1cc(-c2cnn(C3CCNCC3)c2)cnc1N)c1c(Cl)ccc(F)c1Cl", "note": "[PF-1066, crizotinib, reference compound]", "values": [{"measurement": "radiographic response rate", "result": 57, "unit": "%"}]}]}
